Earlier results in patent publication EP4834326A1, “SOLUTION-TYPE QUETIAPINE COMPOSITION FOR TRANSNASAL ADMINISTRATION AND USE THEREOF” (dated 2026).

Conditions: oral

- bioavailability: about 10%
Structure (SMILES): OCCOCCN1CCN(C2=Nc3ccccc3Sc3ccccc32)CC1
